{"source": "patent US20090123956A1", "about": "“Measurement of the oxidants-antioxidants balance in liquids” (Samsung Electronics Co., Ltd., priority 2006, published 2009)", "origin": "cited, not measured here", "conditions": "change in absorbance at 450 nm (reference 620 or 570 nm) at equivalent molar concentration, uric acid = 1"}
{"substance": "albumin", "values": [{"measurement": "relative activity in compare with uric acid", "value": "~0.6"}]}
